# Assay results taken from patent US20060036073A1, “Neurotrophic and neuroprotective peptides” (priority 2002, published 2006).
# How the values were obtained:
# [1] = system: amyloid-beta peptides (β-amyloid 25-35) / nerve cell cultures; test: Amyloid-beta aggregation assay (peptide added to fresh amyloid-beta solution, effect on nerve cell cultures); type: cell-based, chicken
# Procedure: Beta-Amyloid peptides represent, in aggregated form, a potent neurotoxin whose addition to the nerve cell cultures results in a quick and progressive cell death. Since beta-amyloid peptides constitute an essential role in the pathogenesis of Alzheimer's disease, this model can be considered especially relevant.
# This biological test is a process for testing anti-aggregatory substance potential that is specially developed for this project. The newly synthesized peptides are added directly to a fresh solution of amyloid-beta peptides to prevent the formation of neurotoxic aggregates. The effect that aggregates that still develop have on growth and survival of nerve cell cultures is the measurement parameter.
# [2] = system: cortical neurons that are obtained from chicken embryos; test: Chronic disruption of the calcium metabolism by ionomycin, neuron viability by MTT; type: cell-based; conditions: ionomycin 10 μM, 24 hours
# Procedure: It is common to these biological test systems that cortical neurons that are obtained from chicken embryos are cultivated in culture plates for eight days and then are exposed to a specific noxa (Pettmann et al., Nature 281 (5730): 378-80 [1979]).
# To this end, a one-day-old, fertilized hen's egg is incubated for eight days at +12 +/− 0.1° C. and 80 +/− 5% atmospheric humidity. On the embryonal day 0, the eggs are transferred into an incubator and incubated up to the embryonal day 8 at 38 +/− 0.5° C. and 55 +/− 5%. After the brains are removed, the cortices are isolated, homogenized, and neurons are taken into primary culture (culture conditions: Dulbecco's Modified Eagle's Medium, 20% v/v fetal calf serum, 0.01% gentamicin, 1 g/l of glucose, 2 mmol of L-glutamine, +37° C., 5% CO2 and 95% atmospheric humidity). […] After the end of the specified stress period, the proportion of the still living neurons is determined with a metabolic colorimetric assay (the reaction of the yellow chromophore MTT to a blue formazan product is carried out only by living cells).
# It is expected that in the case of various neurodegenerative diseases, chronic calcium overloading occurs because of metabolic malfunctions, which ultimately produces cell death via the activation of various enzyme systems. […]
# [3] = system: cortical neurons that are obtained from chicken embryos; test: Summary of the screening over all neuroprotection assays; type: cell-based
# Procedure: Since the targets of the therapy with the peptides presented according to the invention are various neurodegenerative diseases, different model systems for detecting the biological activity of the peptides according to the invention in the case of neurodegenerative diseases were used. Later, the individually used model systems and the results thus achieved are described. […] That is to say, the implementation of the tests was carried out on different days with different cell preparations and by different individuals. For some peptides, two numbers were issued (#1=#23 or #6=#35 or #7=#43), but the results with these peptides were only shown once. […] With some other substances, there were problems in the production, and thus only small amounts were available, and it was not possible to test the substances in all the assays (#12, 14, 17, 35 and #48). […] As could be seen from the figures, the standard deviations, i.e., the fluctuations between the independent experiments, are to some extent quite large. These fluctuations can be attributed to stability problems. These peptides are the peptides that are preferred within the scope of the invention.
compound,measurement,setting,value
"CSCC[C@H](NC(=O)[C@H](CO)NC(=O)[C@H](CC(C)C)NC(=O)CNC(=O)[C@H](CCCCN)NC(=O)[C@H](CCSC)NC(=O)[C@H](Cc1ccccc1)NC(=O)[C@@H](NC(=O)[C@@H](N)CC(=O)O)C(C)C)C(=O)N[C@@H](C)C(=O)N[C@@H](CCCCN)C(=O)N[C@@H](CCC(=O)O)C(=O)NCC(=O)N[C@H](C(=O)O)C(C)C [BH#1, DVFMKGLSMAKEGV]",AβP reagg. (diff vs C),"[1]; difference vs control, only one round of testing",23%
"CSCC[C@H](NC(=O)[C@H](CO)NC(=O)[C@H](CC(C)C)NC(=O)CNC(=O)[C@H](CCCCN)NC(=O)[C@H](CCSC)NC(=O)[C@H](Cc1ccccc1)NC(=O)[C@@H](NC(=O)[C@H](CC(=O)O)NC(=O)[C@@H](N)CCSC)C(C)C)C(=O)N[C@@H](C)C(=O)N[C@@H](CCCCN)C(=O)N[C@@H](CCC(=O)O)C(=O)O [BH#13, MDVFMKGLSMAKE]",increase in cell vitality to,[2],about 150%
same,Active in: (number of assays),[3]; Table 2 summary,5 of 7
"CSCC[C@H](NC(=O)[C@H](CO)NC(=O)[C@H](CC(C)C)NC(=O)CNC(=O)[C@H](CCCCN)NC(=O)[C@H](CCSC)NC(=O)[C@H](Cc1ccccc1)NC(=O)[C@@H](NC(=O)[C@H](CC(=O)O)NC(=O)[C@@H](N)CCSC)C(C)C)C(=O)N[C@@H](C)C(=O)N[C@@H](CCCCN)C(=O)N[C@@H](CCC(=O)O)C(=O)NCC(=O)O [BH#12, MDVFMKGLSMAKEG]",effectiveness across the screening assays (in words),[3],effective in only one screening assay
"CSCC[C@H](NC(=O)[C@H](CO)NC(=O)[C@H](CC(C)C)NC(=O)CNC(=O)[C@H](CCCCN)NC(=O)[C@H](CCSC)NC(=O)[C@H](Cc1ccccc1)NC(=O)[C@@H](NC(=O)[C@@H](N)CC(=O)O)C(C)C)C(=O)N[C@@H](C)C(=O)N[C@@H](CCCCN)C(=O)N[C@@H](CCC(=O)O)C(=O)NCC(=O)O [BH#24, DVFMKGLSMAKEG]",increase of neuronal vitality by,"[1]; β-amyloid 25-35, peptide added to fresh amyloid solution",44%
